Screening results as filed in PubChem BioAssay.
ClpP mod: qHTS Assay for Activators of ClpP; ATP-dependent Clp protease proteolytic subunit (Bacillus subtilis (strain 168)), P80244; purified B. subtilis ClpP, FRET peptide cleavage, 20 min; Potency, µM (series often up to 57.5 µM), without a hit: at the top dose activity change, negative = active; actives 1.9% (n = 340,000); active = well fitted falling curve with a large enough effect; inconclusive = small, poorly fitted or top-dose-only effect; inactive = no such curve, though single readings can be large or run the other way; note: potency is the fitted concentration of half-maximal effect; the source files actives as falling curves though it sought activators and does not explain the sign; nearly all actives have a fitted effect of over 65% in size
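ClpP 10 microg/mL final, pH 8 Tris/KCl buffer with BSA, glycerol, Tween-20; compound pinned in; FRET-FV substrate; RT 20 min; Ex320/Em430; ΔFRET vs ADEP 5.8 microM, DMSO, no enzyme.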
miR-21 reporter: raises the signal of a miR-21 reporter | HeLa miR-21 FLuc reporter, luciferase, 48 h | Potency, µM (highest dose often 38.3 µM), for inactives: at the highest dose reporter change, positive = more light | 340,000 tested, under 10 active | AID 2288; active = well fitted rising curve with a large enough effect; inconclusive = small, poorly fitted or top-dose-only effect; inactive = no such curve, though single readings can be large or run the other way;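 also: % of control where 0% means no effect; miR-21 action dims this reporter so a rising signal means less miR-21 action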
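HeLa miR-21-FLuc reporter line, endogenous miR-21; 2000 cells/well in DMEM/10% FBS; compound titration up to ~40uM final, 48 h, 37 degree Celsius; luciferase detection reagent, 15 min lysis, CCD luminescence.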
IL2 activator: activators of IL-2; IL-2 activation reporter assay, cell-based qHTS; stimulated with anti-CD3/CD4/CD28 beads; in transgenic mouse T cells; actives 0.065% (n = 360,000); activation, % (series mostly up to about 46 µM); in the data active = activation above about 50%; inconclusive = mostly about 30% to 49%; note: 0% is about no effect
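Unstimulated transgenic mouse T cells; 60-min compound exposure; bead-based TCR/CD4/CD28 stimulation; 18 h culture, 37 degrees C; dual fluorescence (EGFP, DsRed) plate cytometry.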
A549 viability: counter-screen for Nrf2 inhibitors: cytotoxicity in A549 cells; AID 504648; actives 0.16% (n = 390,000); Potency, µM (series often up to 46 µM), without a hit: at the top dose activity change, negative = cytotoxicity, actives largely listed as inhibitors; A549 ARE-Fluc cells, CellTiter-Fluor viability, 18-24 h; note: potency is the fitted concentration of half-maximal effect; % is set by controls: 0 for no effect and ±100 for the full control effect
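A549 ARE-Fluc cells in 5% FBS OPTI-MEM, 5000 cells/well, rested 2 h then exposed to compounds in concentration-response for 18-24 h at 37 °C. Viability by CellTiter-Fluor fluorescence (Ex 405/Em 525) after 30 min; luciferase luminescence (BugLite, 15 min, RT) read afterwards.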
Nrf2 activator: activators of Nrf2 (ARE) signaling. AREc32 ARE-luciferase reporter (MCF7-derived line), luminescence, 24 h. Potency, µM (doses to about 46.1 µM), inactives show at the highest dose activation, usual class: activators. actives 0.31% (n = 410,000). AID 624171; note: potency is the fitted concentration of half-maximal effect; % of control where 0% means no effect; nearly all actives have a fitted effect of over 65% in size
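Luciferase luminescence (Steady-Glo, 30 min at room temperature) served as the read-out of ARE activation in AREc32 cells treated with compounds for 24 hr at 37 deg C.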
Nrf2 block: inhibitors of Nrf2 signaling | A549 ARE-Fluc reporter, luciferase luminescence, 18-24 h | actives 2.1% (n = 360,000) | Potency, µM (titrated, usually from 46 µM), inactives show at the highest dose activity change, negative = inhibition, hits mostly inhibitors; note: potency is the fitted concentration of half-maximal effect; % is set by controls: 0 for no effect and ±100 for the full control effect; nearly all actives have a fitted effect of over 60% in size
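A549 ARE_Fluc cells, 5000/well, 5% FBS OPTI-MEM; compounds in dose-response, 18-24 h at 37 °C/5% CO2; CellTiter-Fluor viability read (Ex 405/Em 525), then BugLite luciferase luminescence = Nrf2 activity.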
* = called active by the depositor; ? = inconclusive; nt = not tested or not shown. In the library only some 3.7% were active in any assay of this set; here they are far more common. Unless noted, calls come from the whole dose curve; as a rule, active = well fitted curve in the direction sought with a large enough effect; inconclusive = small, poorly fitted or top-dose-only effect, or another doubt; inactive = no such curve, though single readings can be large; an effect the other way counts as inactive or inconclusive.

Letter code: A = ClpP mod; B = miR-21 reporter; C = IL2 activator; D = A549 viability; E = Nrf2 activator; F = Nrf2 block
[1] O=C1Cc2ccccc2C(c2ccc(Br)cc2)N1 (stereo not drawn)
  A = -0.8%; B = -0.5%; C = -2.4; D = 2.0%; E = -0.3%; F = ?

[2] O=C1NC2=C(CCc3ccccc32)C(c2ccc(Br)cc2)N1 (stereo not drawn)
  A = 28.2µM*; B = -8.1%; C = -0.2; D = ?; E = 9.2%; F = ?

[3] Cc1ccccc1C(=O)Oc1cc(N)n(S(=O)(=O)c2ccccc2)n1
  A = -1.8%; B = -1.5%; C = -2.0; D = -3.4%; E = -1.1%; F = 7.31µM*

[4] CS(=O)(=O)n1nc(OC(=O)c2cccc3ccccc23)cc1N
  A = 73.4%; B = -9.7%; C = 0.5; D = -6.0%; E = 14.1µM*; F = -6.4%

[5] COc1ccc(C(=O)N/N=C/c2ccc3cccc(OCc4ccccc4)c3n2)cc1
  A = 3.16µM*; B = -2.7%; C = -4.0; D = ?; E = -0.9%; F = ?

[6] NC(=S)N/N=C/c1ccc2cccc(OCc3ccccc3)c2n1
  A = nt; B = -1.8%; C = -0.8; D = ?; E = 17.0%; F = ?

[7] O=C(N/N=C/c1ccc2cccc(OCc3ccccc3)c2n1)c1ccc(Br)cc1
  A = 3.98µM*; B = 0.2%; C = -4.0; D = -23.5%; E = -0.2%; F = ?

[8] CCN(C(=O)C=Cc1ccco1)c1ccccc1
  A = nt; B = nt; C = 0.1; D = 4.2%; E = 14.1µM*; F = 3.1%

[9] CC1Cc2ccccc2C[N+]1(C)CC(=O)c1cccc([N+](=O)[O-])c1 (stereo not drawn)
  A = -4.4%; B = nt; C = nt; D = nt; E = nt; F = nt

[10] O=C(CSC1=Nc2ccccc2C2=NC(Cc3ccccc3)C(=O)N12)Nc1ccccc1C(F)(F)F (stereo not drawn)
  A = 3.6%; B = -9.0%; C = nt; D = -8.8%; E = 5.6%; F = nt

[11] O=C(Nc1ccc(N2CCCCC2)c(C(=O)O)c1)c1ccco1
  A = -0.9%; B = -28.3%; C = -2.5; D = -10.0%; E = -0.5%; F = 16.5%

[12] Cc1cccc(NC(=O)c2cc(NC(=O)c3ccco3)ccc2N2CCCCC2)c1
  A = 17.8µM*; B = -8.4%; C = -1.3; D = ?; E = 0.3%; F = -14.1%

[13] CCC(=O)Nc1ccc(N2CCCCC2)c(C(=O)Nc2ccc(OC)cc2)c1
  A = 0.8%; B = 16.4%; C = -0.4; D = -15.2%; E = 2.8%; F = 18.4µM*

[14] COc1ccccc1NC(=O)c1ccc2ccccc2c1
  A = nt; B = nt; C = nt; D = 14.7%; E = nt; F = ?

[15] COC(=O)C1=C(C(=O)OC)C(C(=O)OC)C(C(=O)OC)C(C(=O)OC)(C(=O)OC)C(C(=O)OC)=C1C(=O)OC (stereo not drawn)
  A = 6.4%; B = nt; C = -5.1; D = -18.6%; E = 8.6%; F = ?

[16] COC(=O)C1=C(C(=O)OC)N2C=CC=CC2(C)C(C(=O)OC)=C1C(=O)OC (stereo not drawn)
  A = 2.82µM*; B = -2.8%; C = -3.3; D = -18.0%; E = 0.9%; F = -5.6%

[17] O=C1CCCc2nc(N3CCN(c4ccccc4)CC3)ncc21
  A = -2.0%; B = -10.7%; C = 5.5; D = -0.1%; E = 0.2%; F = -16.3%

[18] Fc1cnc(N2CCN(c3ccccc3)CC2)nc1N1CCN(c2ccccc2)CC1
  A = 31.6µM*; B = -9.7%; C = 0.1; D = ?; E = 2.4%; F = ?

[19] O=C(NCc1cccnc1)C1CCC(c2ccc(Cl)cc2)CC1 (stereo not drawn)
  A = 28.2µM*; B = 23.9%; C = -0.3; D = 0.0%; E = -0.6%; F = 23.1µM*

[20] Cc1ccc(NC(=O)Cn2nnc(-c3nc(-c4ccncc4)no3)c2N)cc1
  A = 4.5%; B = -11.7%; C = nt; D = 13.3%; E = 0.2%; F = 28.4%

[21] Cc1ccc2nc(-c3ccc(N=Nc4cc(S(=O)(=O)O)c5ccccc5c4O)cc3)sc2c1S(=O)(=O)O
  A = 4.3%; B = nt; C = nt; D = 13µM*; E = nt; F = 11.9%

[22] Fc1ccc(-c2cnn3c(-c4cccs4)ccnc23)cc1
  A = nt; B = -43.9%; C = 106.1*; D = 3.2%; E = ?; F = ?

[23] Fc1ccc(-c2cnn3c(-c4ccncc4)ccnc23)cc1
  A = nt; B = -53.5%; C = 3.7; D = -0.6%; E = 4.5%; F = ?

[24] CCN(Cc1ccccc1)c1ccc(N=Nc2nn(C)c(C)c2[N+](=O)[O-])cc1
  A = 0.9%; B = -61.4%; C = 0.5; D = 16.4µM*; E = 4.1%; F = -24.7%

[25] CCN(CC)c1ccc(N=Nc2ncn[nH]2)cc1
  A = nt; B = -27.8%; C = 0.3; D = ?; E = -0.2%; F = ?

[26] CCN(CC)c1ccc(N=Nc2nn(C)c(C)c2[N+](=O)[O-])cc1
  A = 1.9%; B = -86.3%; C = -2.7; D = 20.6µM*; E = 3.2%; F = ?

[27] CCN(Cc1ccccc1)c1ccc(/C=N/NS(=O)(=O)c2ccc(C)c([N+](=O)[O-])c2)cc1
  A = -3.3%; B = -4.7%; C = -0.5; D = ?; E = 5.9%; F = 1.8%

[28] O=S1(=O)N=C(Oc2ccccc2Br)c2ccccc21
  A = nt; B = nt; C = nt; D = 0.9%; E = nt; F = -1.0%

[29] Cn1nnnc1SCCNCc1ccc(OCc2ccc(Cl)cc2)cc1
  A = 1.4%; B = -3.3%; C = nt; D = 1.2%; E = 4.9%; F = ?

[30] COc1cccc(CC(=O)Nc2c(C(=O)N3CCN(c4ccccc4F)CC3)oc3ccccc23)c1
  A = -14.7%; B = 26.8%; C = nt; D = 3.1%; E = -0.9%; F = -6.8%

Reprinted at random: 2 records from the list.
Letter code: A = ClpP mod; B = miR-21 reporter; C = IL2 activator; D = A549 viability; E = Nrf2 activator; F = Nrf2 block
[7] O=C(N/N=C/c1ccc2cccc(OCc3ccccc3)c2n1)c1ccc(Br)cc1
  A = 3.98µM*; B = 0.2%; C = -4.0; D = -23.5%; E = -0.2%; F = ?

[22] Fc1ccc(-c2cnn3c(-c4cccs4)ccnc23)cc1
  A = nt; B = -43.9%; C = 106.1*; D = 3.2%; E = ?; F = ?

The results go on.
Letter code: A = ClpP mod; B = miR-21 reporter; C = IL2 activator; D = A549 viability; E = Nrf2 activator; F = Nrf2 block
[31] CC(C)CC(=O)Nc1c(C(=O)N2CCN(c3ccccc3F)CC2)oc2ccccc12
  A = -2.6%; B = 28.2%; C = nt; D = -11.8%; E = 0.8%; F = 25.9µM*

[32] Cc1cccc(OCC(=O)Nc2c(C(=O)N3CCN(c4ccccc4F)CC3)oc3ccccc23)c1
  A = -2.7%; B = 29.9%; C = nt; D = ?; E = -1.0%; F = 18.4µM*

[33] CCCCNC(=O)c1ccc2c(c1)NC(=O)C(CS(=O)(=O)Cc1ccc(C)cc1)N2 (stereo not drawn)
  A = ?; B = -10.5%; C = nt; D = 0.0%; E = -0.2%; F = 21.7%

[34] COc1ccc(CNC(=O)c2ccc3c(c2)NC(=O)C(CS(=O)(=O)Cc2ccccc2Cl)N3)cc1 (stereo not drawn)
  A = -27.4%; B = -0.5%; C = nt; D = 9.4%; E = 0.7%; F = ?

[35] COCCNC(=O)c1ccc2c(c1)NC(=O)C(CS(=O)(=O)Cc1ccc(F)cc1Cl)N2 (stereo not drawn)
  A = 15.8µM*; B = -3.1%; C = nt; D = 0.2%; E = 3.2%; F = nt

[36] CCCCNC(=O)c1ccc2c(c1)NC(=O)C(CS(=O)(=O)Cc1cccc(C)c1)N2 (stereo not drawn)
  A = 31.6µM*; B = -0.5%; C = nt; D = 3.6%; E = 0.0%; F = ?

[37] COCCn1ccc2c(OCC(=O)NCc3ccc(C)cc3)cccc2c1=O
  A = 28.2µM*; B = nt; C = -3.1; D = -3.7%; E = -0.7%; F = -9.0%

[38] Cc1[nH]c2ccccc2c1/C=N/NC(=S)NC(C)C
  A = nt; B = -21.1%; C = -1.1; D = ?; E = 4.7%; F = 14.6µM*

[39] CC(C)NC(=S)N/N=C/c1c[nH]c2ccccc12
  A = 1.7%; B = -46.1%; C = 2.1; D = -3.1%; E = 8.9%; F = 20.1%

[40] CCOc1ccccc1Oc1coc2cc(O)ccc2c1=O
  A = 31.6µM*; B = -30.6%; C = -0.7; D = 1.7%; E = 3.3%; F = nt

[41] COc1ccc(Oc2coc3cc(OC(=O)/C=C/c4ccc(F)cc4)ccc3c2=O)cc1
  A = 0.5%; B = -11.0%; C = 0.9; D = -4.7%; E = 0.0%; F = ?

[42] COc1ccccc1Oc1coc2cc(O)ccc2c1=O
  A = 28.2µM*; B = -13.0%; C = -1.6; D = 0.5%; E = 2.9%; F = nt

[43] COc1ccc(Oc2coc3cc(OC(=O)/C=C/c4ccccc4)ccc3c2=O)cc1
  A = 25.1µM*; B = -6.0%; C = -1.4; D = -0.1%; E = -0.7%; F = ?

[44] COc1cc2oc(=O)c(CC(=O)N3CCCCC3)c(C)c2cc1OC
  A = 4.4%; B = -0.7%; C = nt; D = -9.6%; E = -0.1%; F = 4.0%
